# Measurements taken from PubChem BioAssay (NCI).
# Some tests of the compounds listed are not included; inactive here does not mean inactive elsewhere.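 1) Cells in 96-well plates. 2) Compound, 48 h, 5 concentrations. 3) Linear interpolation between surrounding doses. 4) Unreached endpoint = highest concentration. GI50 is the concentration that inhibits growth by half. The concentration for full growth arrest is given as TGI.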
# Legend:
# Assay in all cases: NCI anticancer screen, dose series, 48 h
# IGROV1 ovarian = test system: IGROV1 ovarian
# CCRF-CEM leukemia = test system: CCRF-CEM leukemia
# NCI-H322M lung = test system: NCI-H322M lung
# HCT-116 colon = test system: HCT-116 colon
# HCC-2998 colon = test system: HCC-2998 colon
# SK-MEL-28 melanoma = test system: SK-MEL-28 melanoma
# HL-60(TB) leukemia = test system: HL-60(TB) leukemia
# MOLT-4 leukemia = test system: MOLT-4 leukemia
# SN12C renal = test system: SN12C renal
# SW-620 colon = test system: SW-620 colon
# NCI-H460 lung = test system: NCI-H460 lung
# SNB-75 CNS = test system: SNB-75 CNS
# TK-10 renal = test system: TK-10 renal
# SNB-19 CNS = test system: SNB-19 CNS
# SF-295 CNS = test system: SF-295 CNS
# M14 melanoma = test system: M14 melanoma
# HCT-15 colon = test system: HCT-15 colon
# A549 NSCLC = test system: A549 NSCLC
# NCI-H522 lung = test system: NCI-H522 lung
# OVCAR-5 ovarian = test system: OVCAR-5 ovarian
# MDA-MB-435 = test system: MDA-MB-435
# MALME-3M melanoma = test system: MALME-3M melanoma
# SF-268 CNS = test system: SF-268 CNS
# K-562 leukemia = test system: K-562 leukemia
# UO-31 renal = test system: UO-31 renal
# RXF 393 renal = test system: RXF 393 renal
# RPMI-8226 leukemia = test system: RPMI-8226 leukemia
# MDA-N = test system: MDA-N
# OVCAR-8 ovarian = test system: OVCAR-8 ovarian
# LOX IMVI melanoma = test system: LOX IMVI melanoma
# MCF7 breast = test system: MCF7 breast
# MDA-MB-231 breast = test system: MDA-MB-231 breast
# 786-0 renal = test system: 786-0 renal
# A498 renal = test system: A498 renal
# EKVX NSCLC = test system: EKVX NSCLC
# HOP-62 NSCLC = test system: HOP-62 NSCLC
# SK-OV-3 ovarian = test system: SK-OV-3 ovarian
# DU-145 prostate = test system: DU-145 prostate
# UACC-257 melanoma = test system: UACC-257 melanoma
# U251 CNS = test system: U251 CNS
# T-47D breast = test system: T-47D breast
# SK-MEL-5 melanoma = test system: SK-MEL-5 melanoma
# UACC-62 melanoma = test system: UACC-62 melanoma
# KM12 colon = test system: KM12 colon
# SF-539 CNS = test system: SF-539 CNS
# PC-3 prostate = test system: PC-3 prostate
# OVCAR-4 ovarian = test system: OVCAR-4 ovarian
# SR leukemia = test system: SR leukemia
# NCI-H23 lung = test system: NCI-H23 lung
# COLO 205 colon = test system: COLO 205 colon
# CAKI-1 renal = test system: CAKI-1 renal
# NCI-H226 lung = test system: NCI-H226 lung
# HT29 colon = test system: HT29 colon
# ACHN renal = test system: ACHN renal
# OVCAR-3 ovarian = test system: OVCAR-3 ovarian
# SK-MEL-2 melanoma = test system: SK-MEL-2 melanoma
# NCI/ADR-RES ovarian = test system: NCI/ADR-RES ovarian
# HS 578T breast = test system: HS 578T breast
compound,measurement,setting,value
CC#CC(O)(C(=O)OC1CCN(C)CC1)C1CCCCC1 (stereo unspecified),GI50,IGROV1 ovarian,> 100 µM
same,TGI,IGROV1 ovarian,> 100 µM
same,GI50,CCRF-CEM leukemia,> 100 µM
same,TGI,CCRF-CEM leukemia,> 100 µM
same,GI50,NCI-H322M lung,> 100 µM
same,TGI,NCI-H322M lung,> 100 µM
same,GI50,HCT-116 colon,> 100 µM
same,TGI,HCT-116 colon,> 100 µM
same,GI50,HCC-2998 colon,> 100 µM
same,TGI,HCC-2998 colon,> 100 µM
same,GI50,SK-MEL-28 melanoma,> 100 µM
same,TGI,SK-MEL-28 melanoma,> 100 µM
same,GI50,HL-60(TB) leukemia,> 100 µM
same,TGI,HL-60(TB) leukemia,> 100 µM
same,GI50,MOLT-4 leukemia,> 100 µM
same,TGI,MOLT-4 leukemia,> 100 µM
same,GI50,SN12C renal,> 100 µM
same,TGI,SN12C renal,> 100 µM
same,GI50,SW-620 colon,> 100 µM
same,TGI,SW-620 colon,> 100 µM
same,GI50,NCI-H460 lung,> 100 µM
same,TGI,NCI-H460 lung,> 100 µM
same,GI50,SNB-75 CNS,84.3 µM
same,TGI,SNB-75 CNS,> 100 µM
same,GI50,TK-10 renal,> 100 µM
same,TGI,TK-10 renal,> 100 µM
same,GI50,SNB-19 CNS,> 100 µM
same,TGI,SNB-19 CNS,> 100 µM
same,GI50,SF-295 CNS,> 100 µM
same,TGI,SF-295 CNS,> 100 µM
same,GI50,M14 melanoma,> 100 µM
same,TGI,M14 melanoma,> 100 µM
same,GI50,HCT-15 colon,> 100 µM
same,TGI,HCT-15 colon,> 100 µM
same,GI50,A549 NSCLC,> 100 µM
same,TGI,A549 NSCLC,> 100 µM
same,GI50,NCI-H522 lung,> 100 µM
same,TGI,NCI-H522 lung,> 100 µM
same,GI50,OVCAR-5 ovarian,> 100 µM
same,TGI,OVCAR-5 ovarian,> 100 µM
same,GI50,MDA-MB-435,> 100 µM
same,TGI,MDA-MB-435,> 100 µM
same,GI50,MALME-3M melanoma,> 100 µM
same,TGI,MALME-3M melanoma,> 100 µM
same,GI50,SF-268 CNS,> 100 µM
same,TGI,SF-268 CNS,> 100 µM
same,GI50,K-562 leukemia,> 100 µM
same,TGI,K-562 leukemia,> 100 µM
same,GI50,UO-31 renal,> 100 µM
same,TGI,UO-31 renal,> 100 µM
same,GI50,RXF 393 renal,> 100 µM
same,TGI,RXF 393 renal,> 100 µM
same,GI50,RPMI-8226 leukemia,> 100 µM
same,TGI,RPMI-8226 leukemia,> 100 µM
same,GI50,MDA-N,> 100 µM
same,TGI,MDA-N,> 100 µM
same,GI50,OVCAR-8 ovarian,> 100 µM
same,TGI,OVCAR-8 ovarian,> 100 µM
same,GI50,LOX IMVI melanoma,> 100 µM
same,TGI,LOX IMVI melanoma,> 100 µM
same,GI50,MCF7 breast,> 100 µM
same,TGI,MCF7 breast,> 100 µM
same,GI50,MDA-MB-231 breast,> 100 µM
same,TGI,MDA-MB-231 breast,> 100 µM
same,GI50,786-0 renal,> 100 µM
same,TGI,786-0 renal,> 100 µM
same,GI50,A498 renal,> 100 µM
same,TGI,A498 renal,> 100 µM
same,GI50,EKVX NSCLC,> 100 µM
same,TGI,EKVX NSCLC,> 100 µM
same,GI50,HOP-62 NSCLC,> 100 µM
same,TGI,HOP-62 NSCLC,> 100 µM
same,GI50,SK-OV-3 ovarian,> 100 µM
same,TGI,SK-OV-3 ovarian,> 100 µM
same,GI50,DU-145 prostate,> 100 µM
same,TGI,DU-145 prostate,> 100 µM
same,GI50,UACC-257 melanoma,> 100 µM
same,TGI,UACC-257 melanoma,> 100 µM
same,GI50,U251 CNS,> 100 µM
same,TGI,U251 CNS,> 100 µM
same,GI50,T-47D breast,> 100 µM
same,TGI,T-47D breast,> 100 µM
same,GI50,SK-MEL-5 melanoma,> 100 µM
same,TGI,SK-MEL-5 melanoma,> 100 µM
same,GI50,UACC-62 melanoma,> 100 µM
same,TGI,UACC-62 melanoma,> 100 µM
same,GI50,KM12 colon,> 100 µM
same,TGI,KM12 colon,> 100 µM
same,GI50,SF-539 CNS,> 100 µM
same,TGI,SF-539 CNS,> 100 µM
same,GI50,PC-3 prostate,> 100 µM
same,TGI,PC-3 prostate,> 100 µM
same,GI50,OVCAR-4 ovarian,> 100 µM
same,TGI,OVCAR-4 ovarian,> 100 µM
same,GI50,SR leukemia,> 100 µM
same,TGI,SR leukemia,> 100 µM
same,GI50,NCI-H23 lung,> 100 µM
same,TGI,NCI-H23 lung,> 100 µM
same,GI50,COLO 205 colon,> 100 µM
same,TGI,COLO 205 colon,> 100 µM
same,GI50,CAKI-1 renal,> 100 µM
same,TGI,CAKI-1 renal,> 100 µM
same,GI50,NCI-H226 lung,> 100 µM
same,TGI,NCI-H226 lung,> 100 µM
same,GI50,HT29 colon,> 100 µM
same,TGI,HT29 colon,> 100 µM
same,GI50,ACHN renal,> 100 µM
same,TGI,ACHN renal,> 100 µM
same,GI50,OVCAR-3 ovarian,> 100 µM
same,TGI,OVCAR-3 ovarian,> 100 µM
same,GI50,SK-MEL-2 melanoma,> 100 µM
same,TGI,SK-MEL-2 melanoma,> 100 µM
same,GI50,NCI/ADR-RES ovarian,> 100 µM
same,TGI,NCI/ADR-RES ovarian,> 100 µM
same,GI50,HS 578T breast,> 100 µM
same,TGI,HS 578T breast,> 100 µM
